Results reported in publication PMC8271538, “Chemical Modulation of the 1-(Piperidin-4-yl)-1,3-dihydro-2H-benzo[d]imidazole-2-one Scaffold as a Novel NLRP3 Inhibitor” (Molecules, 2021).
This is a selection: effects in other tests are not listed, and their absence says nothing.

Experiments:
[1] = tested on: NLRP3-dependent pyroptosis in differentiated THP-1 cells; assay: NLRP3-dependent pyroptosis (LDH release) in PMA-differentiated, LPS-primed, ATP-triggered THP-1 cells; type: cell-based, human; details: 10 µM test compound, 1 h before ATP (5 mM, 90 min); vs vehicle-treated cells; mean ± SEM; NA = not active at 10 µM
[2] = tested on: THP-1 cells; assay: Cytotoxicity, MTT assay, 72 h; details: 72 h treatment, 0.1–100 µM, TC50 ± SEM of three experiments
[3] = tested on: NLRP3; details: FLECS; cited from earlier work

Row | SMILES | Pyroptosis Decrease, % inhibition at 10 µM [1] | Cytotoxicity TC50 [2] [µM] | Binding to NLRP3 [3]
1 | O=c1[nH]c2ccccc2n1C1CCN(Cc2ccccc2Cl)CC1 | inactive | 72.6 ± 3.3 | 
2 | Cc1cc(C(=O)CN2CCC(n3c(=O)[nH]c4ccccc43)CC2)c(C)n1C |  |  | able to bind to NLRP3
